The data set relates to Fathead minnow (Pimephales promelas) acute toxicity, lethality. Put plainly: DSSTox (EPAFHM) EPA Fathead Minnow Acute Toxicity.

Consider three molecules from PubChem BioAssay AID1188 (EPA DSSTox, 2008).

Each structure is given as a SMILES string.

On to `Cc1cc([N+](=O)[O-])cc([N+](=O)[O-])c1O`, for which the Potency was 8.73 µM.
Turning to `O=[N+]([O-])c1ccc([N+](=O)[O-])c(O)c1`, the Potency is 18.2 µM.
On to `O=[N+]([O-])c1ccc([N+](=O)[O-])cc1`, for which the Potency is 4.22 µM.
